For this experiment, the target named is recombinant human secreted phospholipase A2 (Homo sapiens, UniProt P14555). The experiment can be described thus: Chromogenic assay for inhibitors of recombinant human secreted phospholipase A2 (Assay Example 1). As to conditions: read-out: IC50 (nM) (nanomolar); diheptanoyl thio-PC substrate, pH 7.5, absorbance at 405 nm, triplicate.

By UniProt entry, the sequences of proteins in these tests, tags left out. Residues count along the entry.
UniProt P14555, 21-144 limits assumed: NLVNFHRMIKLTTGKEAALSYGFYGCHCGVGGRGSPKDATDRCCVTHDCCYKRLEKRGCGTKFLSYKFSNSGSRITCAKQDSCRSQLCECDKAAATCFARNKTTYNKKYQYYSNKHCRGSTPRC

Results on one compound are retold here after US6933313B2, “Substituted carbazoles as inhibitors of sPLA2” (Eli Lilly and Company, priority 2001, dated 2005).

SMILES strings stand for the structures.

One may read the IC50 as the midpoint of a concentration-inhibition curve.

Turning to `NC(=O)c1cccc2c1c1c(OCC(=O)NOc3ccccc3)cccc1n2Cc1ccccc1`, the IC50 was determined as 12 nM.
